Data as given in paper PMC9032934 (Pharmaceutics, 2022).

Target: TatRI-iCAL36
Test: fluorescence polarization

CAL PDZ domain PDZ (from UniProt Q9HD26)
Ki: 1500 nM
